Test results: ChEMBL document CHEMBL1139307, “1-Naphthyl and 4-indolyl arylalkylamines as selective monoamine reuptake inhibitors” (Bioorg Med Chem Lett, 2009)

By UniProt entry, the sequences of proteins in these tests, tags left out.
UniProt Q63380, whole entry: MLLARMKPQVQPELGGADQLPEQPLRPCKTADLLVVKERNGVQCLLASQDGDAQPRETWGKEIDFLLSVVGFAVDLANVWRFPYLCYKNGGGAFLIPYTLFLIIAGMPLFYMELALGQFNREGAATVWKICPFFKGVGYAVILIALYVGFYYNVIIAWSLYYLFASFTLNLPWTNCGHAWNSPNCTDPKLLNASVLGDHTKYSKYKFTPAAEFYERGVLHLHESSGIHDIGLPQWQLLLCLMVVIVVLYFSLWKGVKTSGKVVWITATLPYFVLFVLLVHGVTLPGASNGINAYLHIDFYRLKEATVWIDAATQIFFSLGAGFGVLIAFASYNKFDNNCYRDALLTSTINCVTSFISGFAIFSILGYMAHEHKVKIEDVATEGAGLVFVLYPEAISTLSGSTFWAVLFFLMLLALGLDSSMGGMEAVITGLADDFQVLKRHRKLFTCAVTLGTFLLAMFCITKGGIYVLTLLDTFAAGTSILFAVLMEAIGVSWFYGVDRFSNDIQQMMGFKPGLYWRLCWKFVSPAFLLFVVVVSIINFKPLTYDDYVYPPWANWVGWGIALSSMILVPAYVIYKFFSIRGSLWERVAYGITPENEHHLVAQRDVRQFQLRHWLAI
UniProt P23977, whole entry: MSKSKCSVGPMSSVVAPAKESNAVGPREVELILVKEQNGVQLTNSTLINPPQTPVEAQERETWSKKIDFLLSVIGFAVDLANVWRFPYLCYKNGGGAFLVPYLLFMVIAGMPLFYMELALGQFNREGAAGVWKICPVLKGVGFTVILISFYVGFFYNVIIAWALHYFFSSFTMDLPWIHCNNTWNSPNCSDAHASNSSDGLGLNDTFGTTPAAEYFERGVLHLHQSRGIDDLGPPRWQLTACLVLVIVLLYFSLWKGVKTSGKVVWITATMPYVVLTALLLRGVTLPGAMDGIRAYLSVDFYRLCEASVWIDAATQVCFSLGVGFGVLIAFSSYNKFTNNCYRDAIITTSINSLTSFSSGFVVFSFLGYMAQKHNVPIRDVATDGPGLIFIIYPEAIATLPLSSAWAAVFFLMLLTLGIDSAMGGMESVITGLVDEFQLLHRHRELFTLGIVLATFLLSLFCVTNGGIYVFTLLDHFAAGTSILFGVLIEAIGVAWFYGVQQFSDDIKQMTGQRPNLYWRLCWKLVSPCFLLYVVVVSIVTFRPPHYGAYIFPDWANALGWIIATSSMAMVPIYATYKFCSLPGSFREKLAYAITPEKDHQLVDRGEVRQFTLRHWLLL

What was measured:
[1] = target: Transporter (Rattus norvegicus, UniProt Q63380); assay: Displacement of [3H]nisoxetine from Sprague-dawley rat NET by liquid scintillation spectrophotometry
[2] = target: Sodium-dependent dopamine transporter (Rattus norvegicus, UniProt P23977); assay: Displacement of [125I]RTI55 from DAT in Sprague-dawley rat striatum by liquid scintillation spectrophotometry

Ki [1] | Structure (SMILES) | IC50 [2]
0.006 µM | CNCCC(Oc1ccccc1OC)c1ccccc1 (racemic) [NISOXETINE] | –
– | CNCC[C@@H](Oc1cccc2ccccc12)c1cccs1 [(R)-DULOXETINE] | 0.66 µM
– | CNCC[C@H](Oc1cccc2ccccc12)c1cccs1 [DULOXETINE] | 0.37 µM
